## scFv variants of Ab-95 (light chain) against a SARS-CoV-2 spike peptide

Data: MIT Lincoln Laboratory AlphaSeq set, Engelhart et al. 2022, doi:10.1038/s41597-022-01779-4, as distributed in FLAb.

The target is the same throughout: PDVDLGDISGINAS, from the HR2 region of SARS-CoV-2 spike.

The variants keep the heavy chain, the linker and the frameworks of Ab-95 (scFv order VH, three GGGGS repeats, VL).
VH: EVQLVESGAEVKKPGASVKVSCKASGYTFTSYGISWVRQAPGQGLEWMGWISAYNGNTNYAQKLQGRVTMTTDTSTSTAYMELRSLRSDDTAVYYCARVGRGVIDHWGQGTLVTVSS
VL: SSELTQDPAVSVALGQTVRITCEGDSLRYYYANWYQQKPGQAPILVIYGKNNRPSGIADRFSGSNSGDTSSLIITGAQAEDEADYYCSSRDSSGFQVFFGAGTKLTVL

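The starting antibody came from a phage panning campaign against this peptide. The library (AAYL52) carries one to three amino acid substitutions per variant, with no insertions or deletions. The assay is AlphaSeq: two haploid yeast populations carry antibody and antigen on their surface. Mating (16 h, 30 °C) was followed by selection of diploids and sequencing of their barcodes. Each replicate has its own calibration line, from reference interactions of the BCL2 family. There are three technical replicates.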

Variants are written as CDR1, CDR2 and CDR3 of the light chain (limits as in the source). Parent: EGDSLRYYYAN, GKNNRPS, SSRDSSGFQVF. The read-out is the apparent dissociation constant on a log10 scale (nM): the lower, the stronger. "nd" means that the variant was in the library but no mating with the target was seen in that replicate; the authors take this as a sign of poor binding, and no number exists. For reference, the parent read 2.31 as the reference entry and 2.25 as a member of this library. Empty control strains, which show no peptide, gave a signal in 28% of pairings with library AAYL52; the median was 3.91 and 95% of these signals were weaker than 2.90. No background was subtracted. The control count says in how many pairings with the empty strains this scFv gave a signal.

The variant EGDSLRYYIAN, GKNNRPS, SSRSSSIFQVF gave 4.17, 3.78, 4.50 (controls 4 of 9).
The variant ENDSLRYYIAN, GKNNRPS, SSRDSSGFDVF gave 4.14, nd, 4.37 (controls 7 of 9).
The variant ERDSLRYYYHN, GKNNRPS, SSRDSSGFQVE gave 3.40, 3.48, 3.07 (controls 0 of 9).
The variant EGDSLRYYYAN, FKNNVPW, SSRDSSGFQVF gave nd, 3.21, nd (controls 2 of 9).
The variant EGDSLRYYYAN, GSNNRPS, SSRDSSGFVYF gave 3.36, 3.98, 2.84 (controls 7 of 9).
The variant EGDSLRAYYAN, GKNNRPS, SSRDSQGFQVF gave 2.31, 2.25, 2.16 (controls 2 of 9).
The variant EGDVLRYCYAN, GKNNRPS, SSRDSSGFQVF gave 2.58, 2.10, 2.18 (controls 3 of 9).
The variant EGDSLRYYKAN, GKNNRPS, SSRSSSGFSVF gave 2.30, 2.19, 1.97 (controls 3 of 9).
The variant EGDSLRHYYAN, GKNNRPD, SWRDSSGFQVF gave 1.97, 1.86, 1.11 (controls 2 of 9).
The variant EGDSLFYYYMN, GKNNVPS, SSRDSSGFQVF gave 4.44, 4.61, nd (controls 4 of 9).
The variant EGDRLLYYYMN, GKNNRPS, SSRDSSGFQVF gave nd, 3.68, 4.22 (controls 4 of 9).
The variant EGDSLRDYYAN, GKNNRPW, SSRDSSGFQVF gave 1.82, 1.73, 1.30 (controls 5 of 9).
The variant EGDSRRYYYAP, WKNNRPS, SSRDSSGFQVF gave nd, nd, nd (controls 3 of 9).
The variant EGDSLRYYYAN, GKNNRPS, SSRDSSPAQVF gave 2.43, 2.58, 1.78 (controls 4 of 9).
The variant EGDSLPYYYAN, GKNLRPS, SSRYSSGFQVF gave 3.01, 3.13, 2.66 (controls 1 of 9).
The variant EGDSLRYYYAN, GKNNFPS, SSRDSSGFQVF gave 3.45, nd, nd (controls 1 of 9).
The variant EGYSLRYFYAD, GKNNRPS, SSRDSSGFQVF gave 5.43, nd, 3.91 (controls 1 of 9).
The variant EGDSLRYYYAN, GKNNRPE, SSMDSIGFQVF gave 1.57, 1.87, 1.15 (controls 0 of 9).
The variant EGDVLRYYYAN, GLNNRPS, SWRDSSGFQVF gave nd, nd, nd (controls 0 of 9).
The variant EGDSLRYQYAN, GKNNRSS, SSRDSSGFQVW gave 1.08, 0.97, 0.42 (controls 4 of 9).
The variant ELDSLRYYYAN, GKNNRDN, SSRDSSGFQVF gave nd, 4.32, nd (controls 2 of 9).
The variant HGDSLRYYYIN, GKNNRPS, SSCDSSGFQVF gave 3.70, 3.41, nd (controls 4 of 9).
The variant EGDSLRYYYYV, GKNNRPS, SSRDSSMFQVF gave 4.74, nd, nd (controls 2 of 9).
The variant EGDSLRYYYAN, GKNNRPS, SSRDSSGHNYF gave 2.91, 2.71, 2.74 (controls 2 of 9).
The variant EGDSLRYYYAN, GPGNRPS, SSRDSSGFQDF gave 2.50, 2.51, 2.07 (controls 6 of 9).
The variant EGDSLRYYYAN, GMNDRPS, SSRDSSGFQSF gave 2.48, 3.43, 3.32 (controls 0 of 9).
The variant EGDSCRYYYAN, GLNNRPS, SSRDSIGFQVF gave 3.81, 3.37, nd (controls 3 of 9).
The variant EGTSLRYYYAN, GKNNRPS, CSRDNSGFQVF gave 3.79, nd, 2.20 (controls 1 of 9).
The variant EGDSLEYYYAN, GKNNRRI, SSRDSSGFQVF gave 2.39, 2.28, 2.83 (controls 4 of 9).
The variant KGDSLRYYYAN, GKNNRPS, SSRDSVGNQVF gave 2.39, 2.28, 2.25 (controls 5 of 9).
The variant EGDSLRYYYAQ, GKNNRPS, SSEDSSNFQVF gave nd, nd, 2.71 (controls 2 of 9).
The variant EGDSLRYYYAN, GKNMRPS, YSIDSSGFQVF gave 3.88, 5.33, 4.16 (controls 4 of 9).
The variant EGDSLGYYYAN, WKNNRPS, TSRDSSGFQVF gave 3.91, nd, nd (controls 1 of 9).
The variant EGDSLHHYYAN, GKNNRPS, SKRDSSGFQVF gave 2.58, 2.40, 2.09 (controls 3 of 9).
The variant EGDSLRYYYAV, GKNQRPS, SSYDSSGFQVF gave 4.20, nd, 4.19 (controls 2 of 9).
The variant EGHSLRYYYAN, GKNNRPS, SSRDASQFQVF gave 2.79, 3.29, 3.11 (controls 4 of 9).

For reference, 5 entries of the list once more:

For EGDSLPYYYAN, GKNLRPS, SSRYSSGFQVF, the assay gave 3.01, 3.13, 2.66 (controls 1 of 9).
For EGDSLRYYYAV, GKNQRPS, SSYDSSGFQVF, the assay gave 4.20, nd, 4.19 (controls 2 of 9).
For EGYSLRYFYAD, GKNNRPS, SSRDSSGFQVF, the assay gave 5.43, nd, 3.91 (controls 1 of 9).
For EGDSLRYYIAN, GKNNRPS, SSRSSSIFQVF, the assay gave 4.17, 3.78, 4.50 (controls 4 of 9).
For EGHSLRYYYAN, GKNNRPS, SSRDASQFQVF, the assay gave 2.79, 3.29, 3.11 (controls 4 of 9).